Experiment [1] addresses T1, recombinant human BCAT2 enzyme (Homo sapiens, UniProt O15382).
T1 construct: purchased ATGen (South Korea) ATGP1523
T1 sequence (O15382 28-392): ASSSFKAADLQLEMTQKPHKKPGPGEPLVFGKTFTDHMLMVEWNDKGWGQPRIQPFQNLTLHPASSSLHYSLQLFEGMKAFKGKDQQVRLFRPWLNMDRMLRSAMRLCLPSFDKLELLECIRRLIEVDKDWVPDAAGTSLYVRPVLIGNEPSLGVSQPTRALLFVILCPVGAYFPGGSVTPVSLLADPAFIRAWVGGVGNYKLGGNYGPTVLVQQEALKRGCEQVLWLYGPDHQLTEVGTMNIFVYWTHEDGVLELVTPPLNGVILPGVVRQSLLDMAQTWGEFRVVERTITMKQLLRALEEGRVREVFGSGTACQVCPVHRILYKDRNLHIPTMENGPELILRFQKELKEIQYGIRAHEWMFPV
Briefly: In vitro assay 1b: BCAT2 biochemical assay (coupled LeuDH/NADH fluorescence readout). Note: recombinant human BCAT2 0.75 nM.

In another experiment the test system is U87-MG cells. The experiment is described as follows: In vitro assay 2: BCAT cellular assay, leucine in medium of U87-MG cells. To be noted: Homo sapiens, U-87 MG, 24 h, 24 hours incubation, leucine level in medium (LeuDH/diaphorase/resazurin readout). The format is cell-based.
Another experiment deals with MDA-MB231 cells. Briefly: In vitro assay 2: BCAT cellular assay, leucine in medium of MDA-MB231 cells. The conditions noted are these: Homo sapiens, MDA-MB-231, 24 h, 24 hours incubation, leucine level in medium (LeuDH/diaphorase/resazurin readout), read-out: MDAMB-231 IC50. The format is cell-based.
Experiment [2] deals with T2, recombinant human BCAT1 enzyme (Homo sapiens, UniProt P54687).
T2 construct: purchased ATGen (South Korea) ATGP1479
T2 sequence (P54687 1-386): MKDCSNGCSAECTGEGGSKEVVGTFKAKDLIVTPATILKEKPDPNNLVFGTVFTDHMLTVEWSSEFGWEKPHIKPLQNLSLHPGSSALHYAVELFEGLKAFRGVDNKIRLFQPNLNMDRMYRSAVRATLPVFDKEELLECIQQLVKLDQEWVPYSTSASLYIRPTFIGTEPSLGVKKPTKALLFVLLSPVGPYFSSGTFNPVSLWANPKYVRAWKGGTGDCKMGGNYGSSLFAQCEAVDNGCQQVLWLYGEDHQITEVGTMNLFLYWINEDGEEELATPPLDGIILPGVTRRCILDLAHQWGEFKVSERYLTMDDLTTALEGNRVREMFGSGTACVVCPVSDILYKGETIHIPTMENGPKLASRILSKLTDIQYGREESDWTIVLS
Briefly: In vitro assay 1a: BCAT1 biochemical assay (coupled LeuDH/NADH fluorescence readout). To be noted: 32° C., 100 μM leucine, 50 μM α-ketoglutarate, NADH fluorescence over 90 min.

Where [3] appears, read: recombinant human BCAT2 […], 32° C., 100 μM leucine, 50 μM α-ketoglutarate, NADH fluorescence over 90 min.

Data on 17 compounds can be found in patent US20220411381A1, “PYRIMIDINEDIONE DERIVATIVES” (Bayer Aktiengesellschaft, priority 2019, published 2022).

Like-named read-outs stand apart in the source and are kept apart here.

As a reminder, the IC50 is the concentration that inhibits the measured activity by half.

Regarding “4-[4-(Methanesulfonyl)-2,6-dioxo-3,6-dihydropyrimidin-1(2H)-yl]-5-methoxy-2-(2-methylphenoxy)benzonitrile (atrop 2) [Example 81]”, the IC50 in experiment [1] was found to be 16 µM.
The compound `Cc1ccccc1Oc1cc(-n2c(=O)cc(C(F)(F)F)[nH]c2=O)c(Cl)cc1C#N` (racemic) [Example 11, 5-Chloro-4-[2,6-dioxo-4-(trifluoromethyl)-3,6-dihydropyrimidin-1(2H)-yl]-2-(2-methylphenoxy)benzonitrile (rac)] had an IC50 in the experiment with U87-MG cells of 3.45 µM.
For `Cc1ccccc1Oc1cc(-n2c(=O)cc(C(F)(F)F)[nH]c2=O)c(Br)cc1C#N` (racemic) [Example 18, 5-Bromo-4-[2,6-dioxo-4-(trifluoromethyl)-3,6-dihydropyrimidin-1(2H)-yl]-2-(2-methylphenoxy)benzonitrile (rac)], the IC50 in the experiment with U87-MG cells is 4 µM; with MDA-MB231 cells, over 30 µM.
As to `COc1cc(C#N)c(Oc2ccccc2C)cc1-n1c(=O)cc(C(F)(F)Cl)[nH]c1=O` (racemic) [Example 25, 4-{4-[Chloro(difluoro)methyl]-2,6-dioxo-3,6-dihydropyrimidin-1(2H)-yl}-5-methoxy-2-(2-methylphenoxy)benzonitrile (rac)], the IC50 in the experiment with MDA-MB231 cells turned out to be 23 µM.
As to `COc1cc(Cl)c(Oc2ccccc2C)cc1-n1c(=O)cc(C(F)(F)F)[nH]c1=O` (racemic) [Example 27, 3-[4-Chloro-2-methoxy-5-(2-methylphenoxy)phenyl]-6-(trifluoromethyl)pyrimidine-2,4(1H,3H)-dione (rac)], 6.5 µM corresponded to half-maximal inhibition in the experiment with U87-MG cells (IC50).
For the compound `Cc1ccccc1Oc1cc(-n2c(=O)cc(C(F)(F)c3ccccc3)[nH]c2=O)c2ccccc2c1Cl` (racemic) [Example 29, 3-[4-Chloro-3-(2-methylphenoxy)naphthalen-1-yl]-6-[difluoro(phenyl)methyl]pyrimidine-2,4(1H,3H)-dione (rac)], the IC50 in experiment [1] worked out at 0.2 µM.
Turning to `CCCOc1cc(C#N)c(Oc2ccccc2C)cc1-n1c(=O)cc(C(F)(F)F)[nH]c1=O` (racemic) [Example 39, 4-(2,6-Dioxo-4-(trifluoromethyl)-2,3-dihydropyrimidin-1(6H)-yl)-5-propoxy-2-(o-tolyloxy)benzonitrile (rac)], the concentration for half-maximal inhibition (IC50) stood at 3 µM with U87-MG cells, 4.3 µM in experiment [1] (setting [3]), 0.723 µM in experiment [2] and 20 µM with MDA-MB231 cells.
Take `Cc1ccccc1Oc1cc(-n2c(=O)cc(C(F)(F)F)[nH]c2=O)c(OC(F)(F)F)cc1C#N` (racemic) [Example 55, 4-[2,6-Dioxo-4-(trifluoromethyl)-3,6-dihydropyrimidin-1(2H)-yl]-2-(2-methylphenoxy)-5-(trifluoromethoxy)benzonitrile (rac)]: the IC50 in the experiment with U87-MG cells came to 6 µM; in experiment [1] (setting [3]) it was 4 µM; in experiment [2], 0.925 µM.
For `COc1cc(C#N)c(Oc2ccccc2C)cc1-n1c(=O)cc(-c2ccc(C(F)(F)F)cc2)[nH]c1=O` (racemic) [Example 69, 4-{2,6-Dioxo-4-[4-(trifluoromethyl)phenyl]-3,6-dihydropyrimidin-1(2H)-yl}-5-methoxy-2-(2-methylphenoxy)benzonitrile (rac)], the IC50 in the experiment with MDA-MB231 cells was over 30 µM.
As to `COc1cc(C#N)c(Oc2ccccc2C)cc1-n1c(=O)cc(C(N)=O)[nH]c1=O` (racemic) [Example 73, 1-[4-Cyano-2-methoxy-5-(2-methylphenoxy)phenyl]-2,6-dioxo-1,2,3,6-tetrahydropyrimidine-4-carboxamide (rac)], the IC50 with MDA-MB231 cells is over 30 µM.
The compound `Cc1ccccc1Oc1cc(-n2c(=O)cc(C(F)(F)F)[nH]c2=O)c(Cl)cc1C#N` (single isomer, unassigned) [Example 13, 5-Chloro-4-[2,6-dioxo-4-(trifluoromethyl)-3,6-dihydropyrimidin-1(2H)-yl]-2-(2-methylphenoxy)benzonitrile (atrop 2)] registered an IC50 in the experiment with U87-MG cells of 3.28 µM.
With `COc1ccc(Oc2ccccc2C)cc1-n1c(=O)cc(C(F)(F)F)[nH]c1=O` [AE1, 3-[2-Methoxy-5-(2-methylphenoxy)phenyl]-6-(trifluoromethyl)pyrimidine-2,4(1H,3H)-dione], the IC50 was 15 µM with U87-MG cells, 19 µM in experiment [1] and over 30 µM in the experiment on MDA-MB231 cells.
As to `Cc1ccccc1Oc1ccc(Cl)c(-n2c(=O)cc(C(F)(F)F)[nH]c2=O)c1` [AE3, 3-[2-Chloro-5-(2-methylphenoxy)phenyl]-6-(trifluoromethyl)pyrimidine-2,4(1H,3H)-dione], the IC50 stood at 12 µM in experiment [1] and 30 µM in the experiment on MDA-MB231 cells.
As to `Cc1cccc(C)c1Oc1cc(-n2c(=O)cc(C(F)(F)F)[nH]c2=O)c(F)cc1C#N` [Example 1, 2-(2,6-Dimethylphenoxy)-4-[2,6-dioxo-4-(trifluoromethyl)-3,6-dihydropyrimidin-1 (2H)-yl]-5-fluorobenzonitrile], the values for the IC50 in the experiment with U87-MG cells and in the experiment with MDA-MB231 cells were 6.25 µM and 18 µM, respectively.
On the same counts, the results for `Cc1ccccc1Oc1cc(-n2c(=O)cc(C(F)(F)F)[nH]c2=O)c(I)cc1C#N` [Example 14, 4-[2,6-Dioxo-4-(trifluoromethyl)-3,6-dihydropyrimidin-1(2H)-yl]-5-iodo-2-(2-methylphenoxy)benzonitrile (rac)] are 2.7 µM and 10.4 µM.
Consider `Cc1ccccc1Oc1cc(-n2c(=O)cc(C(F)(F)F)[nH]c2=O)c(F)cc1C#N` [Example 45, 4-[2,6-Dioxo-4-(trifluoromethyl)-3,6-dihydropyrimidin-1(2H)-yl]-5-fluoro-2-(2-methylphenoxy)benzonitrile], for which the IC50 in the experiment with MDA-MB231 cells stood at 30 µM.
Regarding `CCc1cccc(C)c1Oc1cc(-n2c(=O)cc(C(F)(F)F)[nH]c2=O)c(F)cc1C#N` [Example 59, 4-[2,6-Dioxo-4-(trifluoromethyl)-3,6-dihydropyrimidin-1(2H)-yl]-2-(2-ethyl-6-methylphenoxy)-5-fluorobenzonitrile], in experiment [1], the IC50 is 16 µM.
